PubChem BioAssay AID602396 (The Scripps Research Institute Molecular Screening Center, 2012)
This is a selection; strong and weak results do not stand in their true shares. Active and inactive are the calls of the source.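 Rule for the calls: active = inhibition above the mean inhibition of all tested compounds plus 3 SD (cut at about 73% in these data); inactive = the rest.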

Amino acid sequences for entries named in this document (tags omitted).
UniProt O00482, whole entry, looked up: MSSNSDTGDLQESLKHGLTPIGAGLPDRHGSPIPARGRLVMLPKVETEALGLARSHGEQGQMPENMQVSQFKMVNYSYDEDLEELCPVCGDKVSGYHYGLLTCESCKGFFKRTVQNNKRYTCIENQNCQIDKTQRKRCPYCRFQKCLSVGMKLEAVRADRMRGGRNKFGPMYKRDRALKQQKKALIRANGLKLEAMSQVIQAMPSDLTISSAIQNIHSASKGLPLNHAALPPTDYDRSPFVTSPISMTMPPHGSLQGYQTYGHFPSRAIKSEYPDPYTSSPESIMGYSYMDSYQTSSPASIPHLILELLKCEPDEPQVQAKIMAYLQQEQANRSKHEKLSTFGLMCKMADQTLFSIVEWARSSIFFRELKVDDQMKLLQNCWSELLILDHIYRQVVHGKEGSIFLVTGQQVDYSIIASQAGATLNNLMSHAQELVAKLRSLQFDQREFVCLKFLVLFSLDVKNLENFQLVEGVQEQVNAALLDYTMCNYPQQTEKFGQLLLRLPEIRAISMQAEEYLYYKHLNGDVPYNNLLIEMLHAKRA

biological target: Nuclear receptor subfamily 5 group A member 2 (Homo sapiens) (UniProt O00482); test: reduction of NR5A2-driven StAR reporter activity – cell-based, luminescence, HEK293T, StAR-luciferase reporter, primary screen (AID 602396); settings: LRH-1 transfected, 24 h, at 3.6 µM, hits give high values;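 note: 0% = DMSO wells and 100% = reporter-only cells lacking LRH-1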

| Structure (SMILES) | inhibition |
| --- | --- |
| Cc1cc(SC(NC(=O)c2ccccc2)C(Cl)(Cl)Cl)nc(C(C)C)n1 (stereo unspecified) | inactive: 19.3% |
| O=C(O)C(O)c1ccc(N(CCCl)CCCl)cc1 (stereo unspecified) | inactive: 13.6% |
| CCOC(=O)Nc1ccc([As](=O)(O)O)c(O)c1 | inactive: 10% |
| CC1CCNP(=O)(N(CCCl)CCCl)O1 (stereo unspecified) | inactive: -9.71% |
| O=C(OC1CN2CCC1CC2)c1cccc2[nH]cnc12 (stereo unspecified) | inactive: -25% |
| CCN(CC)C(=S)SC(NC=O)C(Cl)(Cl)Cl (stereo unspecified) | inactive: 6.78% |
| CC(C)NC(=O)NP(=O)(Oc1ccccc1)Oc1ccccc1 | inactive: 0.91% |
| O=[N+]([O-])c1cc([N+](=O)[O-])c(-c2ccn[nH]2)s1 | inactive: 33.4% |
| ClCCSc1nnc(-c2cccnc2)o1 | inactive: -15.3% |
| CC(C)c1ccc(OP(=O)(Nc2ccccn2)Oc2ccccc2F)cc1 (stereo unspecified) | inactive: 7.46% |
| COC(=O)C1(C)COP(=O)(N2CCCCCC2)OC1 (stereo unspecified) | inactive: -5.73% |
| Cc1ccc(OP(=O)(Nc2ccc([N+](=O)[O-])cn2)Oc2ccc(C)cc2)cc1 | inactive: -1.89% |
| [N-]=[N+]=NC1CCCCC1NC(=O)c1cc([N+](=O)[O-])cc([N+](=O)[O-])c1 (stereo unspecified) | inactive: -4.87% |
| Cc1ccc2nc3c(c(C)c2c1)CC(C(Cl)Cl)S3 (stereo unspecified) | inactive: -55.6% |
| C[As](=O)(O)c1cccc(C(=O)O)c1 | inactive: -3.51% |
| O=[As](O)(c1ccc(O)cc1)c1ccccc1O | inactive: 3.09% |
| COc1cc(C(=O)NCC2(N3CCOCC3)CCCCC2)ccc1OCC(C)C | inactive: 3.42% |
| O=[N+]([O-])c1ccc(-c2cc([N+](=O)[O-])c(O)c([N+](=O)[O-])c2)cc1 | inactive: 1.14% |
| O=[N+]([O-])c1cc(Oc2ccc([N+](=O)[O-])cc2C(F)(F)F)cc([N+](=O)[O-])c1 | inactive: 24.7% |

| Structure (SMILES) | inhibition |
| --- | --- |
| COc1ccc(N/C(=N/P(=O)(N2CCOCC2)N2CCOCC2)N2CCOCC2)cc1 | inactive: 22.6% |
| O=P1(N(CCCl)CCCl)OCCCN1CCCl (stereo unspecified) | inactive: -16.7% |
| O=P1(N(CCCl)CCCl)Nc2ccccc2N1 | inactive: -109% |
| COc1ccc2nc(NP(=O)(c3ccccc3)c3ccccc3)sc2c1 | inactive: 14.9% |
| COc1cc(I)ccc1[As](=O)(O)O | inactive: -15% |
| Cc1c2c(nc3ccccc13)SC(C(Cl)Cl)C2 (stereo unspecified) | inactive: -8.42% |
| O=C(OC1CN2CCC1CC2)C12CC3CC(CC(C3)C1)C2 (stereo unspecified) | inactive: -2.45% |
| Cc1cc(=O)[nH]c(N[N+](=O)[O-])n1 | inactive: 1.08% |
| O=[N+]([O-])C1C(O)C(O)C([N+](=O)[O-])C(O)C1O (stereo unspecified) | inactive: 25.9% |
| Oc1ccccc1CNc1ccccn1 | inactive: 2.23% |
| O=C(NC(Sc1ccncn1)C(Cl)(Cl)Cl)c1ccccc1 (stereo unspecified) | inactive: -3.37% |
| CC(C)CC(=O)NC(Sc1ccc(Cl)cc1)C(Cl)(Cl)Cl (stereo unspecified) | inactive: 16.1% |
| Nc1cc(N)c2nonc2c1[N+](=O)[O-] | inactive: -2.15% |
| Clc1ccc(Cl)c(NC2=NCC(CBr)S2)c1 (stereo unspecified) | inactive: 14.5% |
| CN1CCCC(OC(=O)C(c2ccccc2)c2ccccc2)C1 (stereo unspecified) | inactive: 11.2% |
| COc1ccccc1OP(=O)(Nc1ccc(C)cn1)Oc1ccccc1OC | inactive: 4.86% |
| Cc1ccc(OP(=O)(Nc2nccs2)Oc2ccc(C)cc2)cc1 | inactive: 7.85% |
| CN(C(=O)Cc1ccc(Cl)c(Cl)c1)[C@H]1CCCC[C@H]1N1CCCC1 | inactive: 12% |
| Cc1ccc(N/C(=N/P(=O)(N2CCOCC2)N2CCOCC2)N2CCOCC2)cc1 | inactive: 11% |

| Structure (SMILES) | inhibition |
| --- | --- |
| NC(=O)c1cc([N+](=O)[O-])cc([N+](=O)[O-])c1N | inactive: -15.9% |
| Nc1cccc2ccc([As](=O)(O)O)cc12 | inactive: -16.9% |
| CCN(N=Nc1nonc1N)c1nonc1N | inactive: -14.2% |
| CCOP(=O)(Nc1ccccc1)OCC | inactive: -9.4% |
| Cc1cc(SC(NC(=O)c2ccc(F)cc2)C(Cl)(Cl)Cl)ncn1 (stereo unspecified) | inactive: -20.3% |
| CN(C(=O)Cc1ccc(Cl)c(Cl)c1)[C@H]1CCCC[C@@H]1N1CCCC1 | inactive: -4.74% |
| Cc1ccc(NP(=O)(Oc2ccccc2F)Oc2ccccc2F)nc1 | inactive: -6.69% |
| CN(C)P(=O)(N(C)C)n1c(Nc2ccccc2)nnc1-c1ccccc1 | inactive: -38.2% |
| O=P(Nc1nc2ccc(Cl)cc2s1)(c1ccccc1)c1ccccc1 | inactive: -12.2% |
| O=C(O)c1ccccc1[As](=O)(O)O | inactive: 9.68% |
| CC(=O)Nc1ccc([As](=O)(O)O)cc1 | inactive: -3.59% |
| CCCC1OP(N)(=O)OCC1CC (stereo unspecified) | inactive: -7.97% |
| O=C(O)CNc1ccc([As](=O)(O)O)cc1 | inactive: 5.92% |
| O=[N+]([O-])c1cccc(NC2=NCC(CBr)S2)c1 (stereo unspecified) | inactive: 3.02% |
| COC(=O)C1(C)COP(=O)(Nc2ccccc2)OC1 (stereo unspecified) | inactive: -7.45% |
| O=[N+]([O-])c1ncn(CCn2ncnc2[N+](=O)[O-])n1 | inactive: -8.2% |
| CC(C)(C)C(=O)NC(Sc1ccncn1)C(Cl)(Cl)Cl (stereo unspecified) | inactive: -12.3% |
| O=C(Nc1cc([As](=O)(O)O)ccc1O)c1ccccc1 | inactive: -6.39% |
